A word on the Ki: it is a dissociation constant, usually derived from enzyme kinetics or from competition with a known ligand.

The chains behind the UniProt entries cited, without tags or fusion partners.
UniProt P10980, whole entry: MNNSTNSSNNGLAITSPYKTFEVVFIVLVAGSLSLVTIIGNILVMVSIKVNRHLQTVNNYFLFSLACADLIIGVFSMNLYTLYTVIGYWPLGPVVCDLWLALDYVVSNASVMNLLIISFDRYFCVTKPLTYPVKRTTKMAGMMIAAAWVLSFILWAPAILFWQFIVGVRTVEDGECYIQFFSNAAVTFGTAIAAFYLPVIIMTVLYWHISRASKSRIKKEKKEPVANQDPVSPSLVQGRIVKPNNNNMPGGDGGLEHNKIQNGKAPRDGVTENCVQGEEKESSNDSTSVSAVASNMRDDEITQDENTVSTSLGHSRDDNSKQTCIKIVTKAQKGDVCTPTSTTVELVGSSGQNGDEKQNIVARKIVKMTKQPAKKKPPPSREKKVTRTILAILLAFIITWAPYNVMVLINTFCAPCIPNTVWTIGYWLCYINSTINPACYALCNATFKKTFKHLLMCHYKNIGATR

Drawing on BindingDB's records for doi:10.1016/S0893-133X(97)00112-7 (H. Lundbeck, 1998), this text covers Ki for one molecule.

The experiment concerns the target Muscarinic acetylcholine receptor M2 (Rattus norvegicus, UniProt P10980).

`Cc1cc2c(s1)=Nc1ccccc1NC=2N1CCN(C)CC1` [CAS_132539-06-1] yielded a Ki of 2.1 nM.
